Patent publication US20090311217A1, “3-SUBSTITUTED-1H-INDOLE COMPOUNDS, THEIR USE AS MTOR KINASE AND PI3 KINASE INHIBITORS, AND THEIR SYNTHESES” (priority 2008, published 2009)

What was measured:
Assay type in all cases: biochemical
human TOR = molecular target: T1, human TOR (Homo sapiens, UniProt P42345); experiment: mTOR enzyme assay (DELFIA, His6-S6K substrate); conditions: read-out: mTOR Kinase Avg. IC50
T1 construct: FLAG

PI3K-gamma = PI3K-gamma (Homo sapiens, UniProt P48736); experiment: PI3K-gamma fluorescence polarization assay; conditions: PI3Kγ Avg. IC50
Method: PI3K-Alpha, PI3K-Beta, PI3K-Gamma, and PI3K-delta Fluorescence Polarization Assay Protocols
PI3-Kinase reactions were performed in 5 mM HEPES, pH 7, 2.5 mM MgCl2, and 25 μM ATP, with diC8-PI(4,5)P2 (Echelon, Salt Lake City Utah) as substrate. Nunc 384-well black polypropylene fluorescent plates were used for PI3K assays. Reactions were quenched by the addition of EDTA to a final concentration of 10 mM. Final reaction volumes were 10 μl. For evaluation of PI3K inhibitors, 5 ng of enzyme (PI3K-alpha, beta, gamma, or delta) and 2.5 μM of substrate was used per […] reaction volume, and inhibitor concentrations ranged from 100 μM to 20 μM; the final level of DMSO in reactions never exceeded 2%. Reactions were allowed to proceed for one hour at 25° C. After 1 hour, GST-tagged GRP1 (general receptor for phosphoinositides) PH domain fusion protein was added to a final concentration of 100 nM, and BODIPY-TMRI(1,3,4,5)P4 (Echelon) was also added to a final concentration of 5 nM. Final sample volumes were 25 μl with a final DMSO concentration of 0.8%. Assay Plates were read on Perkin-Elmer Envision plate readers with appropriate filters for Tamra [BODIPY-TMRI(1,3,4,5)P4]. Data obtained were used to calculate enzymatic activity and enzyme inhibition by inhibitor compounds.

PI3K-alpha = PI3K-alpha (Homo sapiens, UniProt P42336); experiment: PI3K-alpha fluorescence polarization assay; conditions: read-out: PI3Kα Avg. IC50

Structure (SMILES)	IC50 (PI3K-gamma) [nM]	other results
Cn1cc(C=C2Oc3cc(O)cc(O)c3C2=O)c2c(-c3ccccc3)cccc21 [Example 268, 4,6-dihydroxy-2-[(1-methyl-4-phenyl-1H-indol-3-yl)methylene]-1-benzofuran-3(2H)-one]		IC50 (human TOR): 29.5 nM
COc1ccc2c(c1)c(/C=C1\Oc3cc(OC(=O)N(C)c4ccccc4)ccc3C1=O)c(C)n2CCN1CCN(C)CC1 [Compound 558, (2Z)-2-({5-methoxy-2-methyl-1-[2-(4-methylpiperazin-1-yl)ethyl]-1H-indol-3-yl}methylene)-3-oxo-2,3-dihydro-1-benzofuran-6-yl methyl(phenyl)carbamate]	2170	
CNC(=O)Oc1ccc2c(c1)C(=O)/C(=C/c1cn(CCN3CCN(C)CC3)c3ccc(OC)cc13)O2 [Compound 546, (2Z)-2-({5-methoxy-1-[2-(4-methylpiperazin-1-yl)ethyl]-1H-indol-3-yl}methylene)-3-oxo-2,3-dihydro-1-benzofuran-5-yl methylcarbamate]	7360	
Cn1cc(/C=C2\Oc3cc(O)cc(O)c3C2=O)c2ccccc21 [Example 16, (2Z)-4,6-dihydroxy-2-[(1-methyl-1H-indol-3-yl)methylene]-1-benzofuran-3(2H)-one]		IC50 (PI3K-alpha): 1110 nM
